Screening results: PubChem, Broad Institute
In the library only some 1.5% were active in any assay of this set; here they are far more common.
PGC1a acetyl inh: PGC1a acetylation modulation, inhibitor mode. U2OS PGC1a acetylation, AlphaScreen anti-acetyl-lysine; with virally co-expressed GCN5 acetyltransferase. inhibition, % at 15.6 µM. hit rate 0.17% among 350,000;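 active = every replicate shows inhibition of at least 40%; inconclusive = mean inhibition at least 40% but some replicate below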;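 also: 0% = neutral control wells and 100% = positive control wells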
miR-122 sensor: inhibitors of miR-122 in Huh7 cells | Huh7 miR-122 Renilla luciferase sensor, 48 h; neutral wells = 0, positive control = 100 | activation (reporter increase), % at 12.5 µM | hit rate 0.3% among 340,000;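 active = mean replicate activation score at least 90 and every replicate individually at or above 90; inconclusive = only one of the two criteria met; inactive = neither criterion met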;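 also: higher luciferase means less miR-122 activity so hits act as miR-122 inhibitors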
Yeast UUG start: alters start codon recognition fidelity in yeast | S. cerevisiae UUG-firefly luciferase reporter, luminescence/redox ratio | activity score, % at 18.7 µM | hit rate 0.13% among 350,000 | AID 602363;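 active means replicate mean at a twofold rise or more, about +100% in these data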;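 further: firefly luciferase made from a UUG start codon reports start codon fidelity; reporter light over untreated wells divided by growth signal over untreated wells; some hits fall short of that in this replicate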
HIV Env fusion: inhibitors of HIV Env-mediated cell fusion | inhibition, % at 12.3 µM | AID 651610 | HeLa-JRFL Env/CEM21 cell fusion, luciferase | hit rate 1.1% among 360,000;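 active = mean replicate inhibition score of at least 50 and every replicate individually at or above 50; inconclusive = only one of the two criteria met; inactive = mean below 50 and not all replicates reaching 50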;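 also: 0% = plate neutral controls and 100% = maraviroc near 300 nM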
Cneo AK release: causes C. neoformans cell lysis; hit rate 0.2% among 360,000; lysis activity, % at 15 µM; AID 651654; adenylate kinase release luminescence, 4 h; normalised: neutral wells 0, clomiphene wells 100;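 active = mean lysis activity across replicates of at least 80%, whatever share of replicates individually reach that level; inactive = mean lysis activity below 80%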
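read-out = cell lysis signal | test system = log-phase Cryptococcus neoformans yeast cells | input = cells at 5 × 10^6 per mL | medium = fresh YPD growth medium | signal = luminescent adenylate kinase detection reagent | timing = 4 h at 37 °C static, read 1 h later | dosing = single dose | controls = Clomiphene as positive lysis control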
FN deposition inh: fibronectin deposition inhibition | AH1F fibroblasts, Alexa488-fibronectin deposition fluorescence, overnight | inhibition, % at 12.6 µM | hit rate 0.086% among 350,000 | AID 743247;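 active = mean inhibition across replicates of 30% or more, regardless of how many single replicates reach that level; inconclusive = mean under 30% yet at least half of replicates reach 30%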;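 also: positive control wells lacked labelled fibronectin entirely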
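Assay system: AH1F fibroblasts / Quantity: 10000 cells per well / Medium: DMEM plus 2% serum, read in PBS / Reagent: labelled fibronectin 24 nM / Dosing: single dose, pinned / Times: 1 h cell attachment, overnight exposure to compound and label / Signal: fluorescence, ex 485 nm, em 525 nm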
* hit, by the source's call; ? = inconclusive; · = no result given; [ ] = remark or other dose.

| no. | mol | Yeast UUG start | PGC1a acetyl inh | HIV Env fusion | FN deposition inh | miR-122 sensor | Cneo AK release |
| --- | --- | --- | --- | --- | --- | --- | --- |
| 1 | C[C@H](CO)N1C[C@H](C)[C@@H](CN(C)S(=O)(=O)c2ccc(F)cc2)OCCCC[C@H](C)Oc2ccc(NC(=O)Nc3ccc(C(F)(F)F)cc3)cc2C1=O | -16 | 10 | 57*[16.7 µM] | -5 | 3[16.7 µM] | -2 |
| 2 | C[C@@H]1CCCCO[C@@H](CN(C)S(=O)(=O)c2ccc(F)cc2)[C@H](C)CN([C@H](C)CO)C(=O)c2cc(NC(=O)Nc3ccc(C(F)(F)F)cc3)ccc2O1 | -13 | -6 | 68*[16.7 µM] | -12 | 1[16.7 µM] | -19 |
| 3 | CC(=O)NC[C@@H]1[C@H](c2ccc(-c3cccnc3)cc2)[C@H](CO)N1C(=O)C1CCC1 | -8 | 9 | · | 8 | -7[16.7 µM] | 0 |
| 4 | CO/N=C(\C)C(Cc1ccc(Cl)nc1)Cc1ccc(Cl)nc1 | -15 | -2 | 18 | 3 | -5 | 5 |
| 5 | Cc1ccc(S(=O)(=O)Nc2ccc3c(c2)C(=O)N([C@@H](C)CO)C[C@@H](C)[C@@H](CN(C)Cc2ccc(-c4ccccc4)cc2)O3)cc1 | 3 | -11 | -4[16.7 µM] | · | -5[16.7 µM] | -3 |
| 6 | CSc1n[nH]c(NC(=O)c2c(-c3c(Cl)cccc3Cl)noc2C)n1 | · | 65* | -8 | 5 | · | · |
| 7 | O=C([C@H]1O[C@@H](n2ccc(=O)[nH]c2=O)[C@H](O)[C@@H]1O)N1CCN(Cc2ccccn2)CC1 | · | · | 57* | -2 | · | · |
| 8 | CC(C)C(=O)Nc1cc(S(=O)(=O)Nc2cccc(Cl)c2)ccc1Cl | -19 | -9 | 3 | 5 | 256* | 1 |
| 9 | O=S(=O)(N1CCCCC1)N1CCN(CC(O)COc2ccc3cc(Br)ccc3c2)CC1 (stereo not given) | 17 | 5 | 63* | 5 | -22 | 1 |
| 10 | O=C(Cn1nc(-c2ccco2)ccc1=O)Nc1cc(Cl)ccc1Cl | -12 | -5 | 7 | 5 | 3 | 3 |
| 11 | CCC(=O)N(CC)c1nc(-c2ccc(OC)cc2)cs1 | -6 | 48* | -65 | 13 | 3 | -1 |
| 12 | CCC(=O)N(Cc1ccco1)c1nc(-c2ccc(OC)cc2)cs1 | -16 | · | · | · | · | -2 |
| 13 | COc1cc(/C=N/NC(=O)c2ccc(O)cc2)ccc1OCC(=O)Nc1cccc([N+](=O)[O-])c1 | -4 | 52* | -21 | -5 | -7 | 2 |
| 14 | Cc1ccccc1NS(=O)(=O)c1ccc(C)c(C(=O)N2CCOCC2)c1 | -15 | -2 | 15 | -2 | · | 3 |
| 15 | COc1ccc(S(=O)(=O)Nc2ccccc2C)cc1C(=O)N1CCOCC1 | · | 102* | 3 | -3 | -4 | · |
| 16 | Cc1cc(C)c(S(=O)(=O)NCc2ccncc2)c(C)c1 | -12 | 13 | ? | -4 | 118* | 3 |
| 17 | Cc1ccc(S(=O)(=O)NCc2ccco2)c(C)c1C | -3 | -15 | · | · | 107* | 3 |
| 18 | O=C(C1CCC1)N1CCc2cc(S(=O)(=O)NCc3ccco3)ccc21 | -4 | 7 | · | · | 177* | -1 |
| 19 | Cc1ccc(S(=O)(=O)NCc2ccncc2)c(C)c1C | · | 16 | 55* | -8 | 32 | · |
| 20 | CCCNC(=O)Nc1ccc2c(c1)OC[C@H](C)N(C(=O)c1ccccc1F)C[C@H](C)[C@H](OC)CN(C)C2=O | 3 | -7 | · | -28 | · | 51 |
| 21 | Cc1cc(NC(=O)C(C)SCC(=O)Nc2ccc(SC(F)F)cc2)no1 (stereo not given) | -9 | · | -1 | -3 | · | 0 |
| 22 | COc1ccc2c3c([nH]c2c1)[C@H](CO)N(C(=O)CC1CC1)CC31CCN(C(=O)c2ccccc2)CC1 | · | 2 | · | 5 | · | · |
| 23 | O=S(=O)(NCc1ccco1)c1ccc2ccccc2c1 | -22 | · | 1 | 1 | 95* | 1 |
| 24 | CCn1c(=O)c(CCC(=O)N2CCN(c3ccccn3)CC2)c(C)c2c(C)nn(-c3cccc(C)c3)c21 | -11 | -2 | 58* | 5 | -4 | -1 |
| 25 | CCOc1cc(C(=O)NC)cc(OCC)c1OCC | -19 | 0 | · | · | -6 | 1 |
| 26 | C[C@@H]1CN([C@H](C)CO)C(=O)c2cc(NC(=O)Nc3ccc4c(c3)OCO4)ccc2O[C@@H](C)CCCCO[C@@H]1CN(C)Cc1ccc(C(F)(F)F)cc1 | -2 | -25 | ? | · | 9[16.7 µM] | -2 |
| 27 | C[C@H](CO)N1C[C@H](C)[C@H](CN(C)Cc2ccc(C(F)(F)F)cc2)OCCCC[C@H](C)Oc2ccc(NC(=O)Nc3ccc4c(c3)OCO4)cc2C1=O | 1 | -10 | 69*[16.7 µM] | · | 4[16.7 µM] | -1 |
| 28 | C[C@@H]1CN([C@@H](C)CO)C(=O)c2cc(NC(=O)Nc3ccc4c(c3)OCO4)ccc2O[C@@H](C)CCCCO[C@H]1CN(C)Cc1ccc(C(F)(F)F)cc1 | -2 | 15 | 61*[16.7 µM] | · | -9[16.7 µM] | 57 |
| 29 | O=C1c2cccc(NCCNCCO)c2C(=O)c2cccc(NCCNCCO)c21 | · | · | 59* | 3 | · | · |
| 30 | CCn1c(-c2ccc(Cl)cc2)n[nH]c1=S | -19 | 6 | 61* | 6 | -18 | -3 |
| 31 | COc1ccc(C2CC(c3cccs3)=NN2C(=O)CCl)cc1OC (stereo not given) | -10 | · | 62* | -1 | -3 | 1 |
| 32 | Cc1ccc(C2CC(c3cccs3)=NN2C(=O)c2ccc(Br)o2)cc1 (stereo not given) | -9 | 12 | · | · | 1 | 200* |

Some of these compounds in order of their number in HIV Env fusion, highest first.
cpd	SMILES	Yeast UUG start	PGC1a acetyl inh	HIV Env fusion	miR-122 sensor
31	COc1ccc(C2CC(c3cccs3)=NN2C(=O)CCl)cc1OC (stereo not given)	-10	·	62*	-3
30	CCn1c(-c2ccc(Cl)cc2)n[nH]c1=S	-19	6	61*	-18
29	O=C1c2cccc(NCCNCCO)c2C(=O)c2cccc(NCCNCCO)c21	·	·	59*	·

Other results follow:
| no. | mol | Yeast UUG start | PGC1a acetyl inh | HIV Env fusion | FN deposition inh | miR-122 sensor | Cneo AK release |
| --- | --- | --- | --- | --- | --- | --- | --- |
| 33 | CC(=O)Cn1c(=O)oc2ccccc21 | -12 | · | 11 | 5 | -2 | 1 |
| 34 | CCOc1ccc(/C=C/C(=O)OC(C)C(=O)NC2CCCCC2C)cc1OC (stereo not given) | -27 | -12 | 18 | 4 | -4 | 0 |
| 35 | NC(=O)CC(NC(=O)c1ccc(Br)cc1)c1ccc(N2CCC(Cc3ccccc3)CC2)c([N+](=O)[O-])c1 (stereo not given) | -20 | 11 | 22 | -5 | 4 | 2 |
| 36 | NC(=O)CC(NC(=O)c1ccccc1)c1ccc(N2CCC(Cc3ccccc3)CC2)c([N+](=O)[O-])c1 (stereo not given) | -7 | 10 | 87* | 0 | -4 | -2 |
| 37 | OC[C@@H]1[C@H](c2ccc(C3=CCCC3)cc2)[C@@H]2CN(CCC(F)(F)F)CCCCN12 | 8 | -6 | · | · | -28[16.7 µM] | 3 |
| 38 | CCN(CC)CCCn1c2c(c(SCC(=O)Nc3cc(C)cc(C)c3)nc1=O)CCC2 | 11 | · | -1 | 3 | -7 | -1 |
| 39 | CCN(CC)CCn1c2c(c(SCC(=O)Nc3cc(OC)cc(OC)c3)nc1=O)CCC2 | -5 | -4 | 61* | -2 | 1 | -3 |
| 40 | CSCC[C@@H](C(=O)NCc1cccs1)N1Cc2ccccc2C1=O | -9 | · | -59 | -2 | · | -1 |
| 41 | COc1ccc(C(CC(=O)O)NS(=O)(=O)c2ccc(C)cc2)cc1 (stereo not given) | -11 | 4 | -113 | · | -4 | -2 |
| 42 | COc1cc(/C=C/C(=O)OCC(=O)NC(=O)NC(C)C)ccc1OCC#N | -10 | · | 12 | -4 | 23 | 3 |
| 43 | COc1cc(/C=C/C(=O)OCC(=O)NC(=O)NC(C)C)ccc1O | 5 | 6 | 57* | -8 | -2 | 1 |

One compound at a time (already shown).
COc1ccc(C(CC(=O)O)NS(=O)(=O)c2ccc(C)cc2)cc1 (stereo not given) in the list: Yeast UUG start: -11; PGC1a acetyl inh: 4; HIV Env fusion: -113; FN deposition inh: ·; miR-122 sensor: -4; Cneo AK release: -2
OC[C@@H]1[C@H](c2ccc(C3=CCCC3)cc2)[C@@H]2CN(CCC(F)(F)F)CCCCN12 in the list: Yeast UUG start: 8; PGC1a acetyl inh: -6; HIV Env fusion: ·; FN deposition inh: ·; miR-122 sensor: -28[16.7 µM]; Cneo AK release: 3
